Binding of CDR-mutated scFvs to a peptide of the spike HR2 region

Target: peptide PDVDLGDISGINAS, taken from heptad repeat 2 (HR2) of SARS-CoV-2 spike.

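The starting antibody came from a phage panning campaign against this peptide. Library AAYL51 holds single substitutions and randomly drawn double and triple substitutions in the CDRs. The scFvs were displayed on barcoded MATa yeast, the peptide on MATalpha yeast. Binding brings cells together so that they mate, and sequencing counts the barcode pairs among the diploids. Read counts were normalised to the haploid input and turned into Kd by a linear fit to BCL2-family pairs of known affinity, for each replicate. Each pool was mated in three replicate cultures.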

Parent scFv Ab-91: VL joined to VH by a 15-residue (Gly4Ser)3 linker. Changes lie in the heavy chain CDRs alone.
VL: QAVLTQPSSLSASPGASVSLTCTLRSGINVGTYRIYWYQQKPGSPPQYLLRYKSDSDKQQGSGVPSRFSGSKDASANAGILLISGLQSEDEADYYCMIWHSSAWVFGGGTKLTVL
VH: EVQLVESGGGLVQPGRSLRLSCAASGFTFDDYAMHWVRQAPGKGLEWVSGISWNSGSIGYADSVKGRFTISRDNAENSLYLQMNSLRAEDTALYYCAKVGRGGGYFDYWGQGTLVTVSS

The parent's heavy chain CDRs are GFTFDDYAMH, GISWNSGSIGYADSVK, VGRGGGYFDY; each variant's own CDRs replace them letter for letter. Numbers give log10(Kd / nM), so 0 is 1 nM and 3 is 1 µM. Smaller is tighter. "nd" means that the variant was in the library but no mating with the target was seen in that replicate; the authors take this as a sign of poor binding, and no number exists. As a blank, each scFv also met three strains without target: over library AAYL51, 21% of these pairings were detected, typically at 4.54 and seldom below 3.26. The control count says in how many pairings with the empty strains this scFv gave a signal, with their mean in brackets.

CDR-H1 | CDR-H2 | CDR-H3 | log10 Kd, replicates | control signals
GFIFDDYAMH | CISWNSGSIGYADSVK | VGWGGGYFDY | 5.71 / nd / nd | 2 of 9 (4.90)
GFTFDDYAMH | GISWNSTSIGYAYSVK | VGRYGGYFDY | nd / nd / nd | 1 of 9 (2.64)
GFTFDDYAMH | GISWNSGSIGYADSVV | VGRGGGYSDY | 4.45 / 4.95 / nd | 3 of 9 (4.46)
GFTFDDYAMR | GISWNSGSIIYADSVK | VGRGGGYFDN | 4.99 / nd / nd | 1 of 9 (3.60)
GFTFDDYADH | GISWNSGPIGYADSVK | VVRGGGYFDY | 5.23 / 5.18 / nd | 2 of 9 (4.23)
GFTFDDYAMH | KISWNSGSIGYADSVK | AIRGGGYFDY | nd / nd / nd | 2 of 9 (3.84)
GKTFDDYAMH | GISWNSGSIHYADSVK | VGRWGGYFDY | nd / nd / nd | 2 of 9 (4.10)
GFTFDDYAWH | GISWNKGSIGYADSVK | VGRGIGYFDY | 4.02 / nd / 4.79 | 1 of 9 (5.07)
GFTFDDYAMH | GISWNSGSIGYADFVK | CGRGGGYFDY | nd / nd / nd | 2 of 9 (3.94)
GATFDDYAMH | GISWNSGSIGYADSVK | VGYGGGYYDY | nd / nd / nd | 0 of 9
GRTHDDHAMH | GISWNSGSIGYADSVK | VGRGGGYFDY | 4.39 / nd / nd | 1 of 9 (4.99)
GFTFDDYAWH | GISWVSGSIGYADSVK | VGRGGGDFDY | nd / nd / nd | 0 of 9
GFTFDDYAMH | GRSWNSGRIGYADSVC | VGRGGGYFDY | nd / nd / nd | 0 of 9
GFTFDDYAMH | GISWNSRKIGYADSVK | VGRGGMYFDY | nd / nd / nd | 0 of 9
GRTFDDYAMH | GISWNSGSIKYADSVK | VGRGGGYFDY | nd / nd / nd | 0 of 9
GFTFDDYAMN | GIEWNQGSIGYADSVK | VGRGGGYFDY | 4.18 / 4.09 / nd | 4 of 9 (5.15)
GFTFDDYIMH | GISWNSGSIGYADSVK | VGRGPGYHDY | nd / nd / nd | 1 of 9 (3.34)
GFTFDFYAMH | GISWNSGSIPYADSVK | VGRGGGYFDD | 4.66 / 4.36 / nd | 0 of 9
GFTFDDYAMH | GISKNSGSIGYADSRK | VGRGGGYNDY | 4.33 / 4.94 / 5.58 | 5 of 9 (4.90)
GFTFDDYAMH | GILWNSGKIGYADSGK | VGRGGGYFDY | 5.68 / nd / 5.41 | 0 of 9
GFTFDDYAMH | GISWNSGSIGYADSVK | VFRGSGYFDQ | nd / nd / nd | 1 of 9 (3.01)
GFTFDDYAMH | GISWNSGSIEYADSVK | VARGGGYHDY | nd / nd / nd | 1 of 9 (3.44)
GFDFDDYAMH | GISWNSGSIGYADSVK | VGRGSGYYDY | 4.55 / nd / nd | 1 of 9 (2.63)
GFWFDDYAMH | GISWNSGDIGYDDSVK | VGRGGGYFDY | nd / nd / 3.38 | 1 of 9 (4.49)
GFTFDDVMMH | GISWNSGSIGYADSVK | VGRGGGIFDY | nd / nd / 3.95 | 1 of 9 (3.58)
GFTFDDYAMH | GISNNSGSIRYADSVK | VGRGGGYRDY | 4.06 / 5.86 / nd | 3 of 9 (4.74)
GFTFDDYAML | GIHWGSGSIGYADSVK | VGRGGGYFDY | 4.71 / 4.78 / 5.24 | 5 of 9 (4.84)
GFTYDDYAMH | EISWASGSIGYADSVK | VGRGGGYFDY | nd / nd / nd | 2 of 9 (3.91)
GFTFMDYAMH | GISWNSPSIGYADSVK | WGRGGGYFDY | nd / nd / nd | 4 of 9 (4.37)
LFHFDDYAMH | GISVNSGSIGYADSVK | VGRGGGYFDY | nd / nd / nd | 6 of 9 (4.27)
GFTQDDYAMH | GISWNSGSIGYADSVV | VHRGGGYFDY | nd / nd / nd | 2 of 9 (3.39)
GFTFDDYAMH | PRSWNSGSIGYADSVK | VGRGGGQFDY | nd / nd / nd | 2 of 9 (4.13)
GFTCDDYAMH | GISWNSGSIGYADSVK | VGRGGDAFDY | 1.14 / 1.04 / 0.72 | 2 of 9 (4.68)
GFTFDWYAMH | EIVWNSGSIGYADSVK | VGRGGGYFDY | nd / nd / nd | 3 of 9 (4.10)
GFTFDDYAMH | GISWNSGAIGYQDGVK | VGRGGGYFDY | 2.62 / nd / nd | 0 of 9
GFTFDDYAMH | GISWKSGSIGYADSVK | VGRGGGSFDL | 4.65 / nd / 3.68 | 2 of 9 (4.31)
GFTFDAYAMH | GISWNSGMIGYADSVK | VQRGGGYFDY | nd / nd / nd | 0 of 9
TFTFDDQAMH | GISWNSGSIGYADSFK | VGRGGGYFDY | nd / 6.72 / 5.17 | 1 of 9 (3.48)
GFTFDDYAMH | GISWNCGSIGYADSVK | VGRGGGAFAY | nd / nd / 3.73 | 2 of 9 (4.96)
GFTFDDYAGH | GISRNSGSIGYADSVK | VGRGGGYFCY | nd / 3.82 / nd | 4 of 9 (4.09)
GFTFDDYAMH | GLSWNSGSIFYADEVK | VGRGGGYFDY | nd / nd / nd | 1 of 9 (4.49)
GFTFDDYAMH | GRMWNSGSIGYADSVK | VKRGGGYFDY | nd / nd / nd | 0 of 9
GFTFKDYPMH | GISWNSGSIGYADSVK | VGRGGGIFDY | 1.27 / 1.47 / 1.25 | 0 of 9
GFTFDDYAMH | GISWNSGSIGIADSVK | LHRGGGYFDY | 5.31 / nd / 4.61 | 4 of 9 (4.57)
GFTFDLYAMH | GISWNSGSIGYADCVK | VIRGGGYFDY | nd / nd / nd | 0 of 9
GFTFDDYAMW | GISWNSGQIGYADSVK | VGRGGGYFDY | nd / 5.45 / nd | 4 of 9 (4.22)
GFTFDDYAMH | GISWNWGSIGYADWVK | VGRGGGYFDT | nd / nd / nd | 0 of 9
GFTFDDYAMH | GISWNSGSIGYAPSPK | VQRGGGYFDY | nd / nd / nd | 1 of 9 (5.86)
GFTFDDYAHH | DISCNSGSIGYADSVK | VGRGGGYFDY | nd / nd / nd | 0 of 9
GFTFDDYAMH | GISWNSTSIGYALSVK | VGRGGGYFDY | 3.64 / 4.22 / 3.99 | 1 of 9 (3.59)
GFTFDDYAMH | GISWNSGSIGYADGVK | VFRFGGYFDY | nd / nd / nd | 0 of 9
GFTFDDYALH | GISWNSGSIGYADFVK | VTRGGGYFDY | 5.31 / 4.93 / 5.42 | 1 of 9 (4.25)

The closing 6 entries, repeated:

| CDR-H1 | CDR-H2 | CDR-H3 | log10 Kd, replicates | control signals |
|---|---|---|---|---|
| GFTFDDYAMH | GISWNWGSIGYADWVK | VGRGGGYFDT | nd / nd / nd | 0 of 9 |
| GFTFDDYAMH | GISWNSGSIGYAPSPK | VQRGGGYFDY | nd / nd / nd | 1 of 9 (5.86) |
| GFTFDDYAHH | DISCNSGSIGYADSVK | VGRGGGYFDY | nd / nd / nd | 0 of 9 |
| GFTFDDYAMH | GISWNSTSIGYALSVK | VGRGGGYFDY | 3.64 / 4.22 / 3.99 | 1 of 9 (3.59) |
| GFTFDDYAMH | GISWNSGSIGYADGVK | VFRFGGYFDY | nd / nd / nd | 0 of 9 |
| GFTFDDYALH | GISWNSGSIGYADFVK | VTRGGGYFDY | 5.31 / 4.93 / 5.42 | 1 of 9 (4.25) |

In this assay the parent's reference entry averaged 1.86; its copy inside this library read 0.88.

The measurements come from Engelhart et al. 2022 (doi:10.1038/s41597-022-01779-4) through the FLAb antibody collection.